## Ab-95 light chain CDR variants: yeast mating affinities

Target peptide (SARS-CoV-2 spike, HR2 region): PDVDLGDISGINAS

The variants keep the heavy chain, the linker and the frameworks of Ab-95 (scFv order VH, a 15-residue (Gly4Ser)3 linker, VL).
VH: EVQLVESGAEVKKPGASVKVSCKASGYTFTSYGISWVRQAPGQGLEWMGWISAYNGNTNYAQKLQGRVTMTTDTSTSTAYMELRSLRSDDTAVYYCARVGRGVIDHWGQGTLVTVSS
VL: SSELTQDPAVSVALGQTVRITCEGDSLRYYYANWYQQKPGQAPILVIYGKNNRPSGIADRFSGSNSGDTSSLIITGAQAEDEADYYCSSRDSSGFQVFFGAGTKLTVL

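In library AAYL52, one, two or three CDR residues were substituted; doubles and triples were drawn at random. The assay is AlphaSeq: two haploid yeast populations carry antibody and antigen on their surface. The frequency of each diploid, read from paired DNA barcodes, reflects how well the two displayed proteins bind. Read counts were normalised to the haploid input and turned into Kd by a linear fit to BCL2-family pairs of known affinity, for each replicate. Mating was done three times.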

Changes read parent residue, position, new residue, counted from the first residue of the VL shown.
Affinities are written as log10 Kd with Kd in nM; a lower number is a better binder.
Averages over replicates are reported, and they cover detected replicates only.
A pair that was not seen in any replicate is written "no signal"; this usually means weak binding, but a binder can also be missed.
Entries are sorted by rising average, undetected variants last.
As a blank, each scFv also met three strains without target: over library AAYL52, 28% of these pairings were detected, typically at 3.91 and seldom below 2.90. Also given: how often the same scFv was detected with the empty control strains.

changes | log10 Kd (nM), mean | seen in | control signals
Y30N+S55T+V97H | 0.77 | 3/3 | 5/9
E23K+Y31M | 1.21 | 3/3 | 2/9
R28P+S92P+F98Y | 1.50 | 3/3 | 4/9
Y29D+K50N+S89T | 1.70 | 3/3 | 1/9
D25I+Y29G+V97W | 1.98 | 3/3 | 3/9
N33H+N52W+R90K | 1.98 | 3/3 | 3/9
Y29T+Q96F | 2.02 | 3/3 | 5/9
S26M+Y29E+A32T | 2.27 | 3/3 | 5/9
Y29Q+N51S | 2.43 | 3/3 | 6/9
D25P+Y29E+S93K | 2.64 | 3/3 | 2/9
R28C+S88R+F98K | 2.81 | 3/3 | 0/9
D91W+S92C+G94T | 2.83 | 3/3 | 3/9
L27F+Y31Q+D91G | 2.86 | 3/3 | 4/9
K50R+F95W+Q96D | 2.86 | 3/3 | 4/9
Y31F+A32T+R90N | 2.89 | 3/3 | 4/9
Y29L+N52G+F95A | 3.04 | 3/3 | 2/9
R53I+G94P+Q96W | 3.05 | 3/3 | 2/9
L27K+R28Q+S89Q | 3.07 | 3/3 | 3/9
N52Q+S89V+S92G | 3.12 | 3/3 | 3/9
G49S+Q96S | 3.12 | 3/3 | 7/9
N51Q+N52G+S89Y | 3.23 | 2/3 | 2/9
D25P+S55H+G94R | 3.23 | 3/3 | 5/9
L27G+S55R+V97L | 3.36 | 3/3 | 2/9
G24R+N52E+Q96S | 3.38 | 3/3 | 4/9
G49K+K50I+S93C | 3.41 | 1/3 | 2/9
Y29P+V97W+F98R | 3.47 | 3/3 | 3/9
R28F+S89Q+R90W | 3.51 | 3/3 | 1/9
N51Y+D91G+F95T | 3.67 | 3/3 | 2/9
R28Q+P54I+S88P | 3.69 | 1/3 | 2/9
G49S+S55M+Q96I | 3.83 | 1/3 | 1/9
D25M+D91L+G94C | 3.94 | 2/3 | 0/9
D25E+A32W+D91C | 3.96 | 2/3 | 0/9
Y31G+A32Q+R90E | 3.99 | 2/3 | 7/9
Y31M+P54S+S88V | 4.04 | 2/3 | 3/9
S26D+D91Q+V97S | 4.06 | 2/3 | 3/9
G24W+R28G+S88T | 4.13 | 1/3 | 2/9
S26R+N33D+K50H | 4.29 | 3/3 | 5/9
Y29V+N51A+S89F | 4.33 | 2/3 | 7/9
Y31T+N51I+S93K | 4.35 | 1/3 | 1/9
L27K+S55C+S88C | 4.55 | 1/3 | 2/9
G49W+D91R+F98I | 4.68 | 2/3 | 5/9
S26D+N33W+D91M | 5.18 | 2/3 | 3/9
S26C+D91C+Q96I | 5.25 | 1/3 | 4/9
G24P+A32N+S89E | 5.54 | 1/3 | 3/9
S89E+R90F+S93H | no signal | 0/3 | 0/9
A32E+N51V+V97M | no signal | 0/3 | 1/9
G24P+Q96N | no signal | 0/3 | 2/9
D25M+S92D+G94A | no signal | 0/3 | 1/9
D25N+S26N+D91M | no signal | 0/3 | 3/9
D91Q+S92N+Q96L | no signal | 0/3 | 3/9
N33G+S55R+S88C | no signal | 0/3 | 1/9
N51A+S89A+V97K | no signal | 0/3 | 1/9

Excerpt, the final 3 entries:

changes | log10 Kd (nM), mean | seen in | control signals
D91Q+S92N+Q96L | no signal | 0/3 | 3/9
N33G+S55R+S88C | no signal | 0/3 | 1/9
N51A+S89A+V97K | no signal | 0/3 | 1/9

The measurements come from Engelhart et al. 2022 (doi:10.1038/s41597-022-01779-4) through the FLAb antibody collection.